Biological target: Therminator II DNA polymerase (Thermococcus sp., UniProt Q56366, A485L/D141A/E143A/Y409V)

Question: “MR121-labelled 3′-O-Nitro-2′-deoxy-β-D-uridine triphosphate” was tested. Which “incorporation by Therminator II DNA polymerase” value (depending on the triphosphate concentration) did it give?
Answer: incorporated efficiently

Question: What about the “primer + dNTP MWfound” value (incorporation product, MWcalcd 5882.4, c(dNTP) 33.3 μM, PPiase Yes, 10 min, 62° C.) of the same substance?
Answer: 5881.8 DA

Question: What about the “acceptance as substrate by Therminator II DNA polymerase” value (primer extension, 62° C.) of the same substance?
Answer: accepted as substrates

Question: What about the “primer MWfound” value (unextended primer, MWcalcd 4759.2, c(dNTP) 33.3 μM, PPiase Yes, 10 min, 62° C.) of the same substance?
Answer: 4758.4 DA

Source: patent publication US9410197B2, “Compound for sequencing by synthesis” (Roche Diagnostics Operations, Inc., priority 2013, dated 2016)
